Read-outs that look alike come from different tables or passages of the source.
Conditions: mean of n = 3

Solubility (% w/w) Ruxolitinib phosphate (Buffer (pH 5), loaded at 0.1% w/w drug (in terms of freebase)): 0.04 % w/w
Solubility (% w/w) Ruxolitinib phosphate (Buffer (pH 7), loaded at 0.1% w/w drug (in terms of freebase)): 0.03 % w/w
Solubility (% w/w) Ruxolitinib phosphate (Deionised (unbuffered) water, in terms of salt form): about 1.8 % w/w
Structure (SMILES): N#CC[C@H](C1CCCC1)n1cc(-c2ncnc3[nH]ccc23)cn1 [Ruxolitinib phosphate, ruxolitinib phosphate]
